Our source for the CL1 and V2 values is PMC10962654 (Journal of Food and Drug Analysis, 2023).

Where the note is “rat, in vivo, iv”, `CC(=O)N[C@@H](CCC(N)=O)C(=O)O` [N-acetyl-L-glutamine] displayed a CL1 of 18.88 ± 2.03 mL/min/kg.

Regarding `C[C@@H]1O[C@@H](OC[C@H]2O[C@@H](Oc3c(-c4ccc(O)c(O)c4)oc4cc(O)cc(O)c4c3=O)[C@H](O)[C@@H](O)[C@@H]2O)[C@H](O)[C@H](O)[C@H]1O` [Rutin, rutin], the V2 (GHI-L (GHI 2.5 mL/kg, i.v.), MI/R rats, plasma, n = 6) amounted to 1.671 ± 0.12 L/kg.
